Earlier results as cited in patent US5124314A, “Pharmaceutical compositions containing amylin” (Amylin Pharmaceuticals, Inc., priority 1987, dated 1992).

Assays:
[1] = test system: islet B cells; details: a number of model systems
[2] = test system: rats; details: administered to rats

Substance: CGRP: calcitonin gene related peptide, structurally similar to amylin (46% identity with human CGRP-2) (ACDTATCVTHRLAGLLSRSGGVVKNNFVPTNVGSKAF; Calcitonin gene-related peptide 1; UniProt P06881 83-119, looked up)
- rate of glucose induced insulin secretion [1]: modulate the rate of glucose induced insulin secretion
- effect on blood catecholamine levels [2]: significant effects
- effect on blood pressure [2]: significant effects
